Measurements from PMC10716148 (Scientific Reports, 2023).

Tested on: B16F10 melanoma cells
Assay: Cytotoxicity assay (MTT) in B16F10 cells
Assay type: cell-based, Murine
Conditions: 72 h
Method: Murine melanoma B16F10 cells (obtained from DS Pharma Biomedical, Japan) were cultivated in Dulbecco's Modified Eagle Medium (DMEM), a liquid medium supplemented with 10% fetal bovine serum (FBS) and 1% penicillin/streptomycin. The cells were incubated at a temperature of 37 °C within a controlled humidified environment containing 5% CO2. To facilitate subculture, the cells were detached from the culture flask using trypsin solution. Subsequently, the cells were subjected to staining with trypan blue solution and quantified using a hemocytometer for further analysis. The final concentration of DMSO was 0.1% for all experiments.
Cytotoxicity was assessed through the utilization of the MTT assay. The cell culture was initiated in 24-well plates, with a seeding density of 5 × 10^4 cells per well. After treatment with samples for 72 h, 10 µL of MTT solution (5 mg/mL in PBS) were added to each well and incubated for additional 3 h. Then, supernatant was removed and DMSO (250 µL) was added to dissolve the formed formazan crystals. The absorbance was measured at 570 nm using a microplate reader. Cells treated solely with DMSO served as the control. All experiments were conducted in triplicate. The percentage of cell viability was determined using the following calculation: %Cellviability=Abstreated cells-Absblank of treated cells/Abscontrol-Absblank of control×100

Substance: Quercetin-3-O-rhamnoside [Compound 1]
- Cytotoxicity: > 200 µM
